Values of other authors as cited in patent publication US8299237B2, “Nucleic acid sequences comprising NF-κB binding site within O(6)-methylguanine-DNA-methyltransferase (MGMT) promoter region and uses thereof for the treatment of cancer and immune-related disorders” (Hadasit Medical Research Services & Development Ltd., priority 2007, dated 2012).

Conditions: in vivo, iv; cited from earlier work

Substance: poly (Lactide-co-glycolide) monomethoxypoly (ethyleneglycol) [PLGA-mPEG nanoparticles]
- pharmacokinetic behaviour (in words): linear and dose-independent pharmacokinetic
